# Source: paper PMC3031448 (Journal of natural products, 2009)
# Tests used:
# HCT-116 (colon) = conditions: NCI panel
# T-47D (breast) = conditions: NCI panel
# [1] = system: PANC-1 human pancreatic carcinoma; experiment: Cytotoxicity; assay type: cell-based; conditions: Panc-1 vs Vero
# SK-MEL-5 (melanoma) = conditions: NCI panel
# MDA-MB-468 (breast) = conditions: NCI panel
# [2] = system: DLD-1 human colorectal adenocarcinoma; experiment: Cytotoxicity; assay type: cell-based; conditions: DLD-1 vs Vero
# SR (leukemia) = conditions: NCI panel
smiles,measurement,setting,value
"CC(=O)N(C)CCc1cc(Br)c(OCCCNc2ncn(C)c3ncnc2-3)c(Br)c1 [Aphrocallistin, aphrocallistin]",selectivity of growth inhibition,HCT-116 (colon),significant selectivity of growth inhibition
same,selectivity of growth inhibition,T-47D (breast),significant selectivity of growth inhibition
same,potency against Panc-1 cells relative to Vero cells,[1],about three
same,selectivity of growth inhibition,SK-MEL-5 (melanoma),significant selectivity of growth inhibition
same,selectivity of growth inhibition,MDA-MB-468 (breast),significant selectivity of growth inhibition
same,potency against DLD-1 relative to Vero cells,[2],about 10 times
same,selectivity of growth inhibition,SR (leukemia),significant selectivity of growth inhibition
